Measurements published in US20220177490A1, “COMPOUNDS HAVING BOTH EFFECTS OF BET BROMODOMAIN PROTEIN INHIBITION AND PD-L1 GENE REGULATION” (priority 2019, published 2022).

Experiments:
BRD4-1 (BRD4 BD1) = BRD4-1 (BRD4 BD1) (Homo sapiens, UniProt O60885); test: AlphaScreen binding assay of BRD4 biochemical activity (BD1); details: read-out: BRD4 (BD1) IC50; BD1, first value of cell; 10 concentrations, single well, initial 10 μM, 3-fold dilution
BRD4-2 (BRD4 BD2) = BRD4-2 (BRD4 BD2) (Homo sapiens, UniProt O60885); test: AlphaScreen binding assay of BRD4 biochemical activity (BD2); details: read-out: BRD4 (BD2) IC50; BD2, second value of cell; 10 concentrations, single well, initial 10 μM, 3-fold dilution

Cc1sc2c(c1C)C(c1ccc(Cl)cc1)=N[C@@H](CC(=O)Nc1ccc3c(c1)CC1CON=C31)c1nnc(C)n1-2 (single isomer, unassigned) [Compound 5]
IC50 (BRD4-1 (BRD4 BD1)): 0.0312 µM
IC50 (BRD4-2 (BRD4 BD2)): 0.00406 µM

Cc1sc2c(c1C)C(c1ccc(Cl)cc1)=N[C@@H](CC(=O)Nc1ccc3c(c1)CC1CON=C31)c1nnc(C)n1-2 (single isomer, unassigned) [Compound 6]
IC50 (BRD4-1 (BRD4 BD1)): 0.0638 µM
IC50 (BRD4-2 (BRD4 BD2)): 0.0151 µM
